{"source": "PubChem BioAssay AID651819", "about": "(National Center for Advancing Translational Sciences (NCATS), 2012)", "note": "Only a part is listed here, and it is no random draw. The source made the active and inactive calls. Rule as the data show it: active = activity change below about -30%; inactive = the rest. % is scaled to controls: 0 for no effect and ±100 for the full control effect.", "data": [{"test_system": "cytosolic chaperonin (CCT/TRiC complex)", "test": "High-Throughput Screening for Modulators of Cytosolic Chaperonin Activity", "settings": "purified chaperonin ATPase assay, HTRF ADP detection, 30 min; active compounds read low", "description": "The eukaryotic chaperonin named TRiC (for TCP-1 ring complex), also called CCT (for chaperonin containing TCP1), is an essential and conserved chaperone required for the folding and activation of 10-15% of the proteins encoded by the human genome. […] Despite its central role in cellular folding, little is known about TRiC mechanism and mode of substrate binding. Currently, no specific TRiC inhibitors are available. Given the early promise of other chaperone-directed inhibitors as cancer therapeutics (e.g. HSP90 inhibitors), inhibitors of TRiC activity may also selectively target transformed cells and have potential use as therapeutics for cancer.\nTo this end, a miniaturized assay was developed to screen against the Molecular Libraries Small Molecule Repository (MLSMR).\nNIH Chemical Genomics Center [NCGC]\nNIH Molecular Libraries Probe Centers Network [MLPCN]\nAssay Submitter (PI): Judith Frydman, Stanford University\n1.5 uL/well TRiC enzyme suspended in buffer (30 mM TRIS pH7.4, 100 mM KCl, 5 mM MgCl2, 1 mM DTT) was added with BioRAPTR FRD dispenser at 40 nM or 20 nM (based on the enzymatic activity of used batches) final concentration to a white solid bottom medium binding 1536-well plate (Greiner Bio-One, Monroe, NC), and quickly spanned down. 23 nl/well of compound solutions in DMSO were added with a pintool transfer (Kalypsis, San Diego, CA) at a single 76 uM final concentration. Next, 1.5 µl/well ATP was dispensed with BioraptR at 10 uM final concentration after which the plates were incubated at 37 deg C for 30 min. HTRF(R) Transcreener(R) ADP (Cisbio US, Bedford, MA) detection reagents were prepared accordingly to the protocol and dispensed into the plate (1.5 uL/well each), incubated for 30 min at ambient temperature. Then, the plates were read using Envision reader with excitation at 330nm and emission at 615nm (Eu(3)-Cryptate donor signal) and 665nm (d2 acceptor signal). The ratio of […] was calculated for each well.", "values": [{"smiles": "CCCCn1nnnc1C(c1cc2ccccc2o1)N1CCC(n2c(=O)[nH]c3ccccc32)CC1", "note": "(stereo unspecified)", "activity change": "inactive: -0.193%"}, {"smiles": "O=P1(N(CCCl)CCCl)SCCCS1", "activity change": "inactive: 3.27%"}, {"smiles": "O=C(NCC1(N2CCCCC2)CCCCC1)c1ccc(F)cc1", "activity change": "inactive: 0.469%"}, {"smiles": "CCOc1ccc(C)cc1CN(CCCl)CCCl", "activity change": "inactive: 1.57%"}, {"smiles": "O=C1CCN(Cc2ccccc2)CC1", "activity change": "inactive: -0.754%"}, {"smiles": "CC(C)(C)n1nnnc1C(c1ccccc1)N1CCC(n2c(=O)[nH]c3ccccc32)CC1", "note": "(stereo unspecified)", "activity change": "inactive: -0.0698%"}, {"smiles": "O=c1[nH]c2ccccc2n1C1CCN(C(c2cccc3ccccc23)c2nnnn2C2CCCC2)CC1", "note": "(stereo unspecified)", "activity change": "inactive: 0.8%"}, {"smiles": "CCOC(=O)N1CCC(Nc2cccc(C)c2)CC1", "activity change": "inactive: -0.463%"}, {"smiles": "COc1cc(C(=O)NCC2(N(C)C)CCCCC2)ccc1OC(F)F", "activity change": "inactive: -0.204%"}, {"smiles": "O=c1[nH]c2ccccc2n1C1CCN(C(c2ccccc2)c2nnnn2C2CCCCC2)CC1", "note": "(stereo unspecified)", "activity change": "inactive: -0.102%"}, {"smiles": "Cc1ccc(NC2(C#N)CCN(Cc3ccccc3)CC2)cc1", "activity change": "inactive: 1.24%"}, {"smiles": "Fc1ccccc1NC1CCN(Cc2ccccc2)CC1", "activity change": "inactive: 2.11%"}, {"smiles": "Cc1ccc(Nc2c([N+](=O)[O-])cc([N+](=O)[O-])cc2[N+](=O)[O-])cc1", "activity change": "inactive: -0.581%"}, {"smiles": "Cc1ccc(C(=O)NCC2(N3CCCCC3)CCCCC2)o1", "activity change": "inactive: -1.33%"}, {"smiles": "COc1cc(OC)cc(C(=O)NCC2(N3CCCCC3)CCCCC2)c1", "activity change": "inactive: 1.1%"}, {"smiles": "O=c1[nH]c2ccccc2n1C1CCN(C(c2ccnc3ccccc23)c2nnnn2C2CCCCC2)CC1", "note": "(stereo unspecified)", "activity change": "inactive: 0.735%"}, {"smiles": "CCC(c1nnnn1C1CCCCC1)N1CCC(n2c(=O)[nH]c3ccccc32)CC1", "note": "(stereo unspecified)", "activity change": "inactive: 1.73%"}, {"smiles": "COc1cccc(C(c2nnnn2C2CCCCC2)N2CCC(n3c(=O)[nH]c4ccccc43)CC2)c1OC", "note": "(stereo unspecified)", "activity change": "inactive: -2.28%"}, {"smiles": "CC(=O)N(c1ccccc1)C1CCNCC1", "activity change": "inactive: -2.03%"}, {"smiles": "CN(C)c1ccc(C(=O)NCC2(N3CCCCC3)CCCCC2)cc1", "activity change": "inactive: -2.27%"}, {"smiles": "Cn1c(=O)[nH]cc(N(CCCl)CCCl)c1=O", "activity change": "inactive: 1.72%"}, {"smiles": "O=C(NCC1(N2CCCCC2)CCCCC1)c1ccco1", "activity change": "inactive: -1.31%"}, {"smiles": "COc1ccc(C(c2nnnn2C2CCCCC2)N2CCC(n3c(=O)[nH]c4ccccc43)CC2)cc1", "note": "(stereo unspecified)", "activity change": "inactive: 0.333%"}, {"smiles": "CCN1CCC(Nc2cccc(F)c2)CC1", "activity change": "inactive: 0.918%"}, {"smiles": "CC(C)(C)n1nnnc1C(c1ccnc2ccccc12)N1CCC(n2c(=O)[nH]c3ccccc32)CC1", "note": "(stereo unspecified)", "activity change": "inactive: -0.832%"}, {"smiles": "Cc1ccccc1NC1(C#N)CCN(Cc2ccccc2)CC1", "activity change": "inactive: 0.17%"}, {"smiles": "O=c1[nH]c2ccccc2n1C1CCN(C(c2cc3ccccc3o2)c2nnnn2C2CCCC2)CC1", "note": "(stereo unspecified)", "activity change": "inactive: -0.372%"}, {"smiles": "CCCOc1ccc(C(=O)NCC2(N(C)C)CCCCC2)cc1", "activity change": "inactive: -0.924%"}, {"smiles": "NN(c1ccccc1)C1CCN(CCc2ccccc2)CC1", "activity change": "inactive: 0.298%"}, {"smiles": "O=C(O)C1(Nc2ccccc2)CCN(Cc2ccccc2)CC1", "activity change": "inactive: 0.75%"}, {"smiles": "CC(C)(C)OC(=O)N1CCC(Nc2ccccc2)CC1", "activity change": "inactive: 1.34%"}, {"smiles": "CN1CCC(Nc2ccc(F)c(Cl)c2)CC1", "activity change": "inactive: 1.32%"}, {"smiles": "CCOc1ncccc1C(=O)NCC1(N2CCOCC2)CCCCC1", "activity change": "inactive: -0.578%"}, {"smiles": "CN1CCC(Nc2ccc(Cl)cc2)CC1", "activity change": "inactive: -1.32%"}, {"smiles": "CCC(CO)(C(=O)OC1CN2CCC1CC2)c1ccccc1", "note": "(stereo unspecified)", "activity change": "inactive: -2.22%"}, {"smiles": "COc1cccc(C(=O)N(c2cc(C)cc(C)c2)C2CCN(C(=O)OC(C)(C)C)CC2)c1", "activity change": "inactive: -0.514%"}, {"smiles": "COc1cc(OC)cc(C(=O)NCC2(N3CCOCC3)CCCCC2)c1", "activity change": "inactive: -1.47%"}, {"smiles": "COc1cccc(C(c2nnnn2C2CCCC2)N2CCC(n3c(=O)[nH]c4ccccc43)CC2)c1OC", "note": "(stereo unspecified)", "activity change": "inactive: 1.21%"}, {"smiles": "O=c1[nH]c2ccccc2n1C1CCN(C(c2ccnc3ccccc23)c2nnnn2C2CCCC2)CC1", "note": "(stereo unspecified)", "activity change": "inactive: -0.168%"}, {"smiles": "COc1ccc(C(=O)NCC2(N3CCOCC3)CCCCC2)cc1OC", "activity change": "inactive: 0.711%"}, {"smiles": "O=c1[nH]c2ccccc2n1C1CCN(C(c2cccs2)c2nnnn2C2CCCCC2)CC1", "note": "(stereo unspecified)", "activity change": "inactive: -2.13%"}, {"smiles": "O=C(NCC1(N2CCOCC2)CCCCC1)c1cc(Br)ccc1Cl", "activity change": "inactive: 1.18%"}, {"smiles": "COc1cc(C(=O)NCC2(N3CCOCC3)CCCCC2)cc(OC)c1C", "activity change": "inactive: 2.01%"}, {"smiles": "CCCCn1nnnc1C(c1ccccc1)N1CCC(n2c(=O)[nH]c3ccccc32)CC1", "note": "(stereo unspecified)", "activity change": "inactive: -2.86%"}, {"smiles": "CCCCn1nnnc1C(c1cccc(OC)c1OC)N1CCC(n2c(=O)[nH]c3ccccc32)CC1", "note": "(stereo unspecified)", "activity change": "inactive: -2.52%"}, {"smiles": "O=c1[nH]c2ccccc2n1C1CCN(C(c2cccs2)c2nnnn2C2CCCC2)CC1", "note": "(stereo unspecified)", "activity change": "inactive: 0.725%"}, {"smiles": "O=C(O)c1cccc(Nc2c([N+](=O)[O-])cc([N+](=O)[O-])cc2[N+](=O)[O-])c1", "activity change": "inactive: 2.24%"}, {"smiles": "CCc1cc(C(=O)NCC2(N3CCCCC3)CCCCC2)sc1C", "activity change": "inactive: -3.08%"}, {"smiles": "O=C(OC1CN2CCC1CC2)C1c2ccccc2C=Cc2ccccc21", "note": "(stereo unspecified)", "activity change": "inactive: 1.24%"}, {"smiles": "N/C(=N\\O)c1c(N)no[n+]1[O-]", "activity change": "inactive: -1.72%"}, {"smiles": "CCOC(=O)N1CCC(Nc2ccc(C)cc2)CC1", "activity change": "inactive: -6.95%"}, {"smiles": "COc1cccc(C(c2nnnn2C(C)(C)C)N2CCC(n3c(=O)[nH]c4ccccc43)CC2)c1OC", "note": "(stereo unspecified)", "activity change": "inactive: -0.903%"}, {"smiles": "CCOC(=O)C(CC)C1=NC(C)(C)Cc2ccccc21.O=[N+]([O-])c1cc([N+](=O)[O-])c(O)c([N+](=O)[O-])c1", "note": "(stereo unspecified)", "activity change": "inactive: -1.37%"}, {"smiles": "CC(C)(C)OC(=O)N1CCC(N(C(=O)c2ccccc2)c2ccc(Cl)cc2)CC1", "activity change": "inactive: -2.72%"}, {"smiles": "N#Cc1ccc(C(=O)NCC2(N3CCCCC3)CCCCC2)cc1", "activity change": "inactive: -15.1%"}, {"smiles": "CC(C)(C)n1nnnc1C(c1cccc2ccccc12)N1CCC(n2c(=O)[nH]c3ccccc32)CC1", "note": "(stereo unspecified)", "activity change": "inactive: -2.6%"}, {"smiles": "CCCN1CCC(Nc2cc(OC)cc(OC)c2)CC1", "activity change": "inactive: 1.15%"}, {"smiles": "O=c1[nH]c2ccccc2n1C1CCN(C(c2ccccc2)c2nnnn2C2CCCC2)CC1", "note": "(stereo unspecified)", "activity change": "inactive: 0.764%"}, {"smiles": "Cc1cc(N(CCCl)CCCl)ccc1C=O", "activity change": "inactive: -3.23%"}, {"smiles": "c1ccc(CN2CCC(Nc3ccccc3)CC2)cc1", "activity change": "inactive: 0.244%"}, {"smiles": "CN(C)C1(CNC(=O)c2cccc(C#N)c2)CCCCC1", "activity change": "inactive: -3.28%"}]}]}
